From paper PMC7723054
Some of the results follow.

T1: LIN28A (human?, UniProt Q9H9Z2 1-209)
T1 sequence: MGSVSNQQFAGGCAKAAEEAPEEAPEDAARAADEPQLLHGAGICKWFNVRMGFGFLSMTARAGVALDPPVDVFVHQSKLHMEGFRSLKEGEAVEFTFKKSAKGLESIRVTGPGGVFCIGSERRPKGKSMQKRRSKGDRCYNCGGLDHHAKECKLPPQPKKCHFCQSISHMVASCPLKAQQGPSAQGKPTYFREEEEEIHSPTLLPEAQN

T2: CIRBP (Homo sapiens, UniProt Q14011 1-172)
T2 sequence: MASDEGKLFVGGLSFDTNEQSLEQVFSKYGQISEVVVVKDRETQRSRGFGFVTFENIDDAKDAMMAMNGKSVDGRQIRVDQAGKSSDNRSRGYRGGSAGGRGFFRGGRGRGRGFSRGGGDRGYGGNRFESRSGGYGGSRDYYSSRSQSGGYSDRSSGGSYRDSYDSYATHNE

T3: DHX36 (Homo sapiens, UniProt Q9H2U1 1-1008)
T3 sequence: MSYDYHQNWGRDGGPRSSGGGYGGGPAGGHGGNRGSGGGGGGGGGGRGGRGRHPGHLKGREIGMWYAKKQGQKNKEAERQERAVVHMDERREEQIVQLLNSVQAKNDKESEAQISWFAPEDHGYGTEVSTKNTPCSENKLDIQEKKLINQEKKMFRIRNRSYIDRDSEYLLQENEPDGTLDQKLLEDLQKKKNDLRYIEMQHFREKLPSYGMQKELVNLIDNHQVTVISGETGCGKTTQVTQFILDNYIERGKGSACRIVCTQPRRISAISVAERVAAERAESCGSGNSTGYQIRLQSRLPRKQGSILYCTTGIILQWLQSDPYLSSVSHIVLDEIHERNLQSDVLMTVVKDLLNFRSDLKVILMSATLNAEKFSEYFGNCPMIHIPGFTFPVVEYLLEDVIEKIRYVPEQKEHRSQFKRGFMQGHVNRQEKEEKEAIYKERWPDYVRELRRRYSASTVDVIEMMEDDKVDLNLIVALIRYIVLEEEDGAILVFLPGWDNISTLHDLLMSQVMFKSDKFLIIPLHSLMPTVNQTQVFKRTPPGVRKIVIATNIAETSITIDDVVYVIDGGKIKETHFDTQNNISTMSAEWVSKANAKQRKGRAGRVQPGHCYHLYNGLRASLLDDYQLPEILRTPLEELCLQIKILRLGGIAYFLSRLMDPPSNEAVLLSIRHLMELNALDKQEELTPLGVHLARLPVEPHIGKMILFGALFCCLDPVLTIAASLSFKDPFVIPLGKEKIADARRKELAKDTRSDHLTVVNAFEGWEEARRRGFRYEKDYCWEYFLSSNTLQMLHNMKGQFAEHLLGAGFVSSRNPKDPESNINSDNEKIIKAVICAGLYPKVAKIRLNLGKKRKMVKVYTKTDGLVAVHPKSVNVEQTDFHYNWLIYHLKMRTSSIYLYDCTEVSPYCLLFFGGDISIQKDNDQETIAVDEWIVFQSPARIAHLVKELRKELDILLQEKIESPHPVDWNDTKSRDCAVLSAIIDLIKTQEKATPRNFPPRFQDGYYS

B1: hsa-mir-4706 (structured_RNA)
RNA: GGGACGAAUGCCAGAAGCAUGCUACUCAGGUGUACGAAGUUUCAGCGCUUCUGCGUUAUCUGGAAGGGCUGAAGCUUCGUGCAC
B2: hsa-mir-3668 (structured_RNA)
RNA: GGGAACGCUGGCCACUGACAGGCAUAAUGGUGUACGAAGUUUCAGCAAAUAGUUUCUAUCAAAAUAGUUUGCUGAAGCUUCGUGCAC
B3: hsa-mir-7843 (structured_RNA)
RNA: GGGAACGGAAUGAAUCCCGGAACUUUCCGGUGUACGAAGUUUCAGCUCCUGAUCUGAUGGAAGUCAUGAGCUGAAGCUUCGUGCAC
B4: PARIS_ID47 (structured_RNA)
RNA: GGGAGCAUAGCACCGCCUCAUGGUACAUGGUGUACGAAGUUUCAGCGUGAUGGCUUUGAGGUUAUUUGCAGUUUCCUAGCCAUCUCGCUGAAGCUUCGUGCAC
B5: hsa-mir-548c (structured_RNA)
RNA: GGGAACGACAGCCGAGUCAAUAAGGCAGGGUGUACGAAGUUUCAGCUUUGCCAUUACUUUCAGUAGCAAAGCUGAAGCUUCGUGCAC
B6: hsa-mir-8063 (structured_RNA)
RNA: GGGACCUUACCGUUAUCCACGGAACGUCGGUGUACGAAGUUUCAGCAUGAGAAAUUGGUUUCAAGCUGAAGCUUCGUGCAC
B7: hsa-mir-4472-1 (structured_RNA)
RNA: GGGAAAUGGACUCGGAAGGAAUUGCUCCGGUGUACGAAGUUUCAGCCACUCUCCCUAAUGGGGCUGAAGACAGCUCAGGGGCAGGGUGGCUGAAGCUUCGUGCAC
B8: NEAT1_ParasoR_ID39 (structured_RNA)
RNA: GGGACGUGACUCUACUCCAAAAUAGCCAGGUGUACGAAGUUUCAGCGUGCUCUGCACGCUGAAGCUUCGUGCAC
B9: hsa-mir-6079 (structured_RNA)
RNA: GGGAAAGCACGAACAUUACUCGACACCCGGUGUACGAAGUUUCAGCCCAAAGAAACUUUUUUGGGCUGAAGCUUCGUGCAC
B10: hsa-mir-4741 (structured_RNA)
RNA: GGGAUUUCCGAAGGCUCCGAACCCCUUGGGUGUACGAAGUUUCAGCCCCGGCCGGCAGCCCCCGGCCUUAAAGCGCGGGGCUGAAGCUUCGUGCAC
B11: hsa-mir-4802 (structured_RNA)
RNA: GGGAAUCGGUUGCAAAGGGGACAUAUUCGGUGUACGAAGUUUCAGCUGUUAGUGUUCAAGUCUACAGCUGAAGCUUCGUGCAC
B12: hsa-mir-548as (structured_RNA)
RNA: GGGAAACACUAGGAAGGCCCGUCACUGCGGUGUACGAAGUUUCAGCUUUGCCGUUGCUUUUAAUGGUAAAGCUGAAGCUUCGUGCAC
B13: hsa-mir-937 (structured_RNA)
RNA: GGGAGAACGACAGUGCGCACUGGAAAACGGUGUACGAAGUUUCAGCGGCUGGCCCCCUGCUUCGUGCCCAUCCGCUGAAGCUUCGUGCAC

Columns and labels:
Test in all cases: FOREST: bead pull-down of RNA structure library v1, barcode microarray; U1A/LIN28A: 20 mM HEPES pH 7.5, 80 mM KCl, 20 mM NaCl, 10% glycerol, 2 mM DTT, 0.1 ug/uL BSA, 4 C; BG4/CIRBP/DHX36: 10 mM Tris-HCl pH 7.5, 100 mM KCl (or LiCl),; high values mean tight binding
LIN28A = target: T1, LIN28A
CIRBP = target: T2, CIRBP
DHX36 = target: T3, DHX36

| Binder | binding signal (LIN28A) [z-score] | binding signal (CIRBP) [z-score] | binding signal (DHX36) [z-score] |
| --- | --- | --- | --- |
| B1 | -1.03 | -1.01 | -1.68 |
| B2 | -1.04 | -0.125 | -1.01 |
| B3 | -1.04 | -0.393 | -1.21 |
| B4 | -1.04 | -1.12 | -1.53 |
| B5 | -1.05 | -1.49 | -0.431 |
| B6 | -1.05 | -0.361 | -0.665 |
| B7 | -1.05 | 0.171 | -0.133 |
| B8 | -1.06 | 0.114 | -0.994 |
| B9 | -1.07 | 0.743 | -0.0401 |
| B10 | -1.07 | -0.702 | 0.822 |
| B11 | -1.07 | 0.0146 | -0.812 |
| B12 | -1.07 | 0.587 | -0.851 |
| B13 | -1.07 | -0.629 | 0.419 |
